Reference: patent US20250136641A1, “PEPTIDES AND COMPOSITIONS FOR USE IN COSMETICS, FOOD AND MEDICINE” (priority 2022, published 2025)

Legend:
[1] = system: IL-8; assay: IL-8 secretion by HaCaT keratinocytes (ELISA), with or without IFNγ; assay type: cell-based, human
[2] = system: TRF1; assay: TRF1 levels in CHA9.3 cells (immunofluorescence); assay type: cell-based; details: 0.063 mg/mL peptide, 24-hour incubation, vs DMSO control

## Gly-Asn-Glu-Leu-Leu-Asp-Tyr-NH2
[1]; 48 hours, 0.005, 0.01 or 0.05 mg/mL together with IFNγ at 10 ng/mL, compared to positive control (IFNγ alone)
  secretion of IL-8 under inflammatory conditions: decrease, in a dose-dependent manner
[1]; without IFNγ, all concentrations tested (SEQ ID NO: 2-NH2 0.005, 0.01, 0.05 mg/mL; SEQ ID NO: 3-NH2 0.01, 0.05 mg/mL), vs untreated cells
  secretion of IL-8 under basal conditions: decreased the secretion of IL-8, but to a higher degree than SEQ ID NO: 2-NH2
[2]
  TRF1 intensity: increase in TRF1
